Molecular target: Histamine H3 receptor (Homo sapiens, UniProt Q9Y5N1)
Test: biochemical

Protein sequences, listed by entry. Tags and fused reporters are not part of them. Lines headed by an entry give the natural chain unless they say otherwise; changes in a name come on top.
UniProt Q9Y5N1: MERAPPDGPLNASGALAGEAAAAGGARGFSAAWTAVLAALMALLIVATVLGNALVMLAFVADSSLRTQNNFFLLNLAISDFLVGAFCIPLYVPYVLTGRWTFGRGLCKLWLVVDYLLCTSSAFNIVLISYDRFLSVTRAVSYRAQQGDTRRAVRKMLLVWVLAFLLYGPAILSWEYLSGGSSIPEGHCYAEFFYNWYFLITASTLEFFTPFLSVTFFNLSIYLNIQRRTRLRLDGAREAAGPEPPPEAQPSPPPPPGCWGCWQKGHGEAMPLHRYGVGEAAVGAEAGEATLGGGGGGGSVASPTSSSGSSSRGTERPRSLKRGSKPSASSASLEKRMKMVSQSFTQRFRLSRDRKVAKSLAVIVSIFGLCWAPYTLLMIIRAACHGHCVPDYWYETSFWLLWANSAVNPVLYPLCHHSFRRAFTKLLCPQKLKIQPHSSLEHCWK

O=C(c1ccc(OCCCc2cnc[nH]2)cc1)C1CC1 [CIPROXIFAN] gave a Ki of 46 to 180 nM.

Source: ChEMBL document CHEMBL4342404, “Anti-cholinesterase hybrids as multi-target-directed ligands against Alzheimer's disease (1998-2018)” (Bioorg Med Chem, 2019)
